The target of experiment [1] is T1, Protein deacetylase HDAC6 (Mus musculus) (UniProt Q9Z2V5).
T1 sequence (whole entry): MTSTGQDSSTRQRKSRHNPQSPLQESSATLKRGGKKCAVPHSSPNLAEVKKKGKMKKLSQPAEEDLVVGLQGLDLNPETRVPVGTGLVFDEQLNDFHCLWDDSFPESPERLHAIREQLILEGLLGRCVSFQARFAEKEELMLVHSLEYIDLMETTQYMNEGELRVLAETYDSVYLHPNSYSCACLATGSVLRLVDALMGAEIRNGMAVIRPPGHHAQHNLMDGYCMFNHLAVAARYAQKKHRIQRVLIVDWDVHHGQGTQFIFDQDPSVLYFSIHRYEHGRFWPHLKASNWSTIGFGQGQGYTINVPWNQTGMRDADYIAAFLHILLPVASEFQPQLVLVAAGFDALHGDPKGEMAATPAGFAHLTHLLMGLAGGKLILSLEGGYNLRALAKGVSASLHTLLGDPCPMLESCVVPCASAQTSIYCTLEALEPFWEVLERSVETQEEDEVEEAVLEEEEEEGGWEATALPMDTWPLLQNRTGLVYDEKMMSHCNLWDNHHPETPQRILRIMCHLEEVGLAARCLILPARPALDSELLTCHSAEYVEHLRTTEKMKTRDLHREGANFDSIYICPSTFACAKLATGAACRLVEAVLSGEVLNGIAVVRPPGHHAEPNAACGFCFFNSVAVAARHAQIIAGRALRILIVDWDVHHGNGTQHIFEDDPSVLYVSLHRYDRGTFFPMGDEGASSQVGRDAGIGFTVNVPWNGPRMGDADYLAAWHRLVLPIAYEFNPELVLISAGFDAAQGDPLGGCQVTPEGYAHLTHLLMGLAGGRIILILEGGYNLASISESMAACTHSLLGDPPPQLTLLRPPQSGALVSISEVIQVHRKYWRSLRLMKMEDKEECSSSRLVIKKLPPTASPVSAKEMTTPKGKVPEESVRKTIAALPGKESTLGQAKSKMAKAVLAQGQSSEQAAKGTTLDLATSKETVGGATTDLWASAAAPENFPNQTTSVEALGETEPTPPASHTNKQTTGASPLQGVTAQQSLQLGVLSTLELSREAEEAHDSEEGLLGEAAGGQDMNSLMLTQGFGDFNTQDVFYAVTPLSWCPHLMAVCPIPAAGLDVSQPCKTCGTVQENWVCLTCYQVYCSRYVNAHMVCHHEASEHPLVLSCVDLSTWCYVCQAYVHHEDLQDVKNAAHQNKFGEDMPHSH
To be noted: C57BL/6, 10 mg/kg.

Experiment [2] has as its target T1, Protein deacetylase HDAC6 (Mus musculus). Nature of the experiment: In vivo inhibition of HDAC6 in C57BL/6 mouse cortex assessed as increase in alpha tubulin acetylation at 20 mg/kg, ip administered bid with interval of 4 hrs and measured after 1.5 hrs of last dosage by Western blot analysis. It is filed as functional, organism-based. A digest of the protocol: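 Adult male C57BL/6 mice got two IP injections of 20 mg/kg, 4 h apart, and were killed 1.5 h after the second. Cortical homogenates were Western blotted (n = 3–4 per group) for acetylated α-tubulin/total tubulin densitometric ratio, normalized to vehicle-treated baseline (100%). Mean and standard deviation are reported; significance versus vehicle at p < 0.05 or p < 0.01.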

Experiment [3] shares this target. Conditions: C57BL/6, 10 mg/kg. The source holds these as a separate data set.

Activity calls are given as the source filed them. The rule behind the calls is not given here.

Take `CN1CCc2c(c3ccccc3n2Cc2ccc(C(=O)NO)cc2)C1` [TUBASTATIN A]: the inhibition result in experiment [1] was “Active”. Also, the result in experiment [2] was Active. In experiment [3], the inhibition result is “inactive”.

The values above are taken from ChEMBL document CHEMBL4613285, “Structural and in Vivo Characterization of Tubastatin A, a Widely Used Histone Deacetylase 6 Inhibitor” (ACS Med Chem Lett, 2020).
